From ChEMBL document CHEMBL3797043 (Bioorg Med Chem Lett, 2016)

The chains behind the UniProt entries cited, without tags or fusion partners.
UniProt O00519, whole entry: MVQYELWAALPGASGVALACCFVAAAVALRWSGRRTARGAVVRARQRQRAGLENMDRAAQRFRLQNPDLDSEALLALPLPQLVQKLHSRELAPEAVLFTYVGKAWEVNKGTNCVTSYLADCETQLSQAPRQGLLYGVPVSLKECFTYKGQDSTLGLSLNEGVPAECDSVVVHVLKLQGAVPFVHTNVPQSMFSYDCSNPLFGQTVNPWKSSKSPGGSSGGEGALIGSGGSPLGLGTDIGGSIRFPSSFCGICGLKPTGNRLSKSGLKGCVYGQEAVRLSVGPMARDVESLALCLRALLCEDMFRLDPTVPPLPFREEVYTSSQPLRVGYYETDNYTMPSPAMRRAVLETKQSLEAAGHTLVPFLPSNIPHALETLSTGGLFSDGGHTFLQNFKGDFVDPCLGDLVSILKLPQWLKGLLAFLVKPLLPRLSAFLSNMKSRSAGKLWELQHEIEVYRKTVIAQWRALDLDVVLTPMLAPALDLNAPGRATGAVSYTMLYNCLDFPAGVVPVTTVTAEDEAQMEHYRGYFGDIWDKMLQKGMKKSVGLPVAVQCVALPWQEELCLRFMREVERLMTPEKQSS

Target: Fatty-acid amide hydrolase 1 (Homo sapiens, UniProt O00519)
Experiment: Reversible inhibition of MBP-fused human recombinant FAAH with truncated N-terminal transmembrane domain expressed in Escherichia coli T7 assessed as enzyme activity recovery rate using D-AMC substrate measured 24 to 144 hrs after exhaustive dialysis by fluorescence based assay

SMILES: O=C(Nc1ccccc1)N1CCN(c2nc(-c3ccccc3)ns2)CC1
- inhibition: Active

The source made the active and inactive calls. The rule behind the calls is not given here.
